Assay results reported in patent US20090142411A1, “Composition and Device Comprising an Inorganic Component (Metal Compound) for Coagulation of Protein-Containing Fluids” (SMITH & NEPHEW, PLC, priority 2005, published 2009).

silver (I) oxide
dissolution in protein-containing fluid: dissolve significantly
effect on rate of dissolution of gold (III) oxide (protein-containing fluid, via silver hydroxide species formed): enhance the rate of dissolution of the gold (III) oxide
